Where “and” joins values, the source holds several entries; their conditions need not be identical. Equal entries are not always repeated. Only a part is listed here, and it is no random draw. Inconclusive results are not listed. Some compounds were tested as several samples or in several runs, with calls that do not always agree. Calls of active or inactive are those of the source. Calls follow the shape of the dose curve; as a rule, active = well fitted inhibition curve with a large enough effect in the repeat runs; inconclusive = weak or mixed curves; inactive = no such curve, though single readings can be large or run the other way.
Potency is read from the fitted curve at half-maximal effect.

Amino acid sequences for entries named in this document (tags omitted).
UniProt P33261, whole entry, looked up: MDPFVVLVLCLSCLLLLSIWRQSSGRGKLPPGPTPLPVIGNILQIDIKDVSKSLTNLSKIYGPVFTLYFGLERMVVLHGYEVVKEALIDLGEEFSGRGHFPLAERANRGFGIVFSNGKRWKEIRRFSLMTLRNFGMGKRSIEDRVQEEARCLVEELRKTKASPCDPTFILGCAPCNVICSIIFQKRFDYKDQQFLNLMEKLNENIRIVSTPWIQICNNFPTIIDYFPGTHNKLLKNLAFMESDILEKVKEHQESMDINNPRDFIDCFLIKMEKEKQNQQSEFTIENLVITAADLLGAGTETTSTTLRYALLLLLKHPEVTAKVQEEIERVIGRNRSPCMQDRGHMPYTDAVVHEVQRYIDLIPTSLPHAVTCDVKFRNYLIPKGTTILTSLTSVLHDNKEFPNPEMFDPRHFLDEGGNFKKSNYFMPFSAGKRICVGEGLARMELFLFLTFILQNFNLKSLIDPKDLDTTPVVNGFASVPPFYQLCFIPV
UniProt P11712, whole entry, looked up: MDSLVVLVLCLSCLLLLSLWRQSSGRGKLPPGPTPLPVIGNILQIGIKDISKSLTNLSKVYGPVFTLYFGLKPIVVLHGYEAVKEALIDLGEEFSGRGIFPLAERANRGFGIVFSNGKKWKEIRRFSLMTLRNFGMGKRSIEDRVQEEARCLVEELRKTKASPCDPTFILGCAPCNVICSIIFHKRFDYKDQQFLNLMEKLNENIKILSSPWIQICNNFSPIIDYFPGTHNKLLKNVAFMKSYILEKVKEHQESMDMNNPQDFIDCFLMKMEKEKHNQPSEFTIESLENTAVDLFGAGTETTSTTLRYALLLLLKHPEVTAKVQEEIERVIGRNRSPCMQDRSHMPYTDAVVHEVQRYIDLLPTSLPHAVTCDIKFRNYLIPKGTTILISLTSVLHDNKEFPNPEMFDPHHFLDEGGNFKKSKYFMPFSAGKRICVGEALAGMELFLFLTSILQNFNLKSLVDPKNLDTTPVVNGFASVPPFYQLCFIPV

One experiment deals with Cytochrome P450 2C19 (Homo sapiens) (UniProt P33261). Briefly: Cytochrome P450 Family 2 Subfamily C Member 19 (CYP2C19) small molecule antagonists: luciferase reporter qHTS assay (AID 1671197). Also: nearly all actives have a fitted effect of over 65% in size. Conditions: P450-Glo CYP2C19 enzyme, luciferin luminescence, 1 h. In outline:
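Inhibition of CYP2C19 was scored from loss of luminescence in a P450-Glo proluciferin substrate assay, NADPH-started and run 1 h at 37C, with ketoconazole as positive control.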
As for `O=C(/C=C/C=C/c1ccc2c(c1)OCO2)N1CCCCC1`, the Potency was active: 40 µM and active: 35.6 µM.

For `O=C(O)c1cccc(C(=O)O)n1`, the Potency was active: 79.6 µM.

For `CCc1nc(N)nc(N)c1-c1ccc(Cl)cc1`, the Potency is active: 40.5 µM and active: 39.9 µM.

In the case of `Cc1c(C)c2c(c(C)c1O)CCC(C)(COc1ccc(CC3SC(=O)NC3=O)cc1)O2` (stereo unspecified), the Potency is active: 79.6 µM.

For `COc1cc(NC(C)CCCN)c2ncccc2c1` (stereo unspecified), the Potency was active: 12.3 µM.

In the case of `CN(C)c1ccc2nc3ccc(=[N+](C)C)cc-3sc2c1`, the Potency is active: 242 nM and active: 224 nM and active: 219 nM.

For another experiment, the target named is Cytochrome P450 2C9 (Homo sapiens) (UniProt P11712). Put plainly: Cytochrome P450 Family 2 Subfamily C Member 9 (CYP2C9) small molecule antagonists: luciferase reporter qHTS assay (AID 1671198). Also: nearly all actives have a fitted effect of over 50% in size. Conditions: P450-Glo CYP2C9 enzyme assay, luciferin luminescence. In outline: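 Enzyme-substrate mix preincubated with compound 10 min at room temperature; reaction started with NADPH regeneration solution, 1 h 37C. Luminescent luciferin product read after 20 min detection reagent.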
In general terms: Reporter assays use an easily measured gene product as a stand-in for the process of interest.
Take `OC(Cn1cncn1)(Cn1cncn1)c1ccc(F)cc1F`: the Potency was active: 25.4 µM and active: 35.6 µM and active: 13.8 µM.

With `C#C[C@]1(O)CC[C@H]2[C@@H]3CCC4=Cc5oncc5C[C@]4(C)[C@H]3CC[C@@]21C`, the Potency was active: 2.24 µM and active: 2.45 µM.

Take `O=c1c(O)c(-c2ccc(O)c(O)c2)oc2cc(O)cc(O)c12`: the Potency was active: 28.5 µM [middle of 4 runs].

On to `COc1cc(NC(C)CCCN)c2ncccc2c1` (stereo unspecified), for which the Potency is active: 30.9 µM.

For `CN(C)c1ccc2nc3ccc(=[N+](C)C)cc-3sc2c1`, the Potency is active: 5.42 µM and active: 7.96 µM and active: 9.77 µM.

The record behind these values is PubChem BioAssay (Tox21).
